From patent US4020150A (priority 1974, dated 1977)

What was measured:
P. berghei = details: in vivo
Walker tumor = details: versus malphalan

Nc1ccc(S(=O)(=O)Nc2ncccn2)cc1 [sulfadiazine]
relative efficacy against P. berghei, sulfadiazine vs silver sulfadiazine (P. berghei): equal efficacy
concentration in Walker tumor relative to an active alkylating agent, liver as standard (Walker tumor): twenty-five times more effectively
